# According to US7384914B2, “Night-time oral insulin therapy” (Emisphere Technologies, Inc., priority 2003, dated 2008):
# Tests used:
# [1] = monkeys, oral, toxicology studies with 4-CNAB
# [2] = Oral insulin absorption in rats at varying doses of insulin and 4-CNAB (serum insulin); settings: oral aqueous solution, insulin alone 13 Units/kg
substance,measurement,setting,value
insulin,absolute bioavailability of insulin,[1],≤ 1%
same,increase in serum insulin levels,[2],did not result in any significant increases
